For data set [1] the following is noted: octanol/water, pH 7.4, 3 h.

This note sets out measurements from ChEMBL document CHEMBL5154899, “Spiropyrimidinetrione DNA Gyrase Inhibitors with Potent and Selective Antituberculosis Activity” (J Med Chem, 2022).

Molecules are shown by their SMILES. ≈ marks a conversion by molar mass, not a printed value.

In turn, `C[C@@H]1CN2c3c(cc4c(-n5cncn5)noc4c3F)CC3(C(=O)NC(=O)NC3=O)[C@H]2[C@H](C)O1` yielded a logD in data set [1] of 1.6. For the same compound, the kinetic solubility at 20 h, 200 µM in the data set “physchem” turned out to be 115 µM (≈ 52.4 µg/mL).

Take `C[C@@H]1CN2c3c(cc4c(-n5cncn5)noc4c3F)CC3(C(=O)NC(=O)NC3=O)[C@H]2[C@H](C)N1C#N`: the log distribution coefficient (logD) in data set [1] is on record as 1.7. In “physchem”, this compound returned a solubility (kinetic) at 20 h, 200 µM of 50 µM (≈ 24 µg/mL).

As to `C[C@@H]1CN2c3c(cc4c(OCC[C@@H]5CCC(=O)N5)noc4c3F)CC3(C(=O)NC(=O)NC3=O)[C@H]2[C@H](C)O1`, in data set [1], the logD came to 1.7. The compound also returned a solubility (kinetic) at 20 h, 200 µM in the data set “physchem” of 190 µM (≈ 97.9 µg/mL).

`C[C@@H]1CN2c3c(cc4c(N5CC[C@H](N)C5)noc4c3F)CC3(C(=O)NC(=O)NC3=O)[C@H]2[C@H](C)O1`: the logD in data set [1] is 0.16. This compound returned a kinetic solubility at 20 h, 200 µM in “physchem” above 200 µM.

As for `C[C@@H]1CN2c3c(cc4c(N5CCC[C@H](O)C5)noc4c3F)CC3(C(=O)NC(=O)NC3=O)[C@H]2[C@H](C)O1`, the logD in data set [1] is reported as 1.9. Besides, the kinetic solubility at 20 h, 200 µM in “physchem” was above 200 µM.

As to `C[C@@H]1CN2c3c(cc4c(N5CC[C@@H](O)C5)noc4c3F)CC3(C(=O)NC(=O)NC3=O)[C@H]2[C@H](C)N1C#N`, in data set [1], the logD was 1.2. The compound further registered a kinetic solubility at 20 h, 200 µM in “physchem” of 145 µM (≈ 72.1 µg/mL).

As to `C[C@@H]1CN2c3c(cc4c(N5C(=O)OC[C@@H]5C)noc4c3F)CC3(C(=O)NC(=O)NC3=O)[C@H]2[C@H](C)N1C#N`, the logD in data set [1] came to 1.8. Further, in “physchem”, the kinetic solubility at 20 h, 200 µM was below 5 µM.

Turning to `CO[C@H]1CCN(c2noc3c(F)c4c(cc23)CC2(C(=O)NC(=O)NC2=O)[C@H]2[C@H](C)O[C@H](C)CN42)C1`, in data set [1], the logD was 2. In addition, the kinetic solubility at 20 h, 200 µM in “physchem” amounted to 140 µM (≈ 68.2 µg/mL).

Consider `C[C@@H]1CN2c3c(cc4c(N5CC[C@H](O)C5)noc4c3F)CC3(C(=O)NC(=O)NC3=O)[C@H]2[C@H](C)N1C#N`, for which the logD in data set [1] amounted to 1.3. In the data set “physchem”, this compound gave a kinetic solubility at 20 h, 200 µM of 155 µM (≈ 77.1 µg/mL).

For the compound `C[C@@H]1CN2c3c(cc4c(OC[C@@H]5CCC(=O)O5)noc4c3F)CC3(C(=O)NC(=O)NC3=O)[C@H]2[C@H](C)O1`, the pH-dependent lipophilicity (logD) in data set [1] was found to be 1.6. Moreover, in the data set “physchem”, the kinetic solubility at 20 h, 200 µM amounted to 170 µM (≈ 85.4 µg/mL).

In turn, `C[C@@H]1CN2c3c(cc4c(OC[C@H]5CCC(=O)N5)noc4c3F)CC3(C(=O)NC(=O)NC3=O)[C@H]2[C@H](C)O1` displayed a logD in data set [1] of 1.4. Besides, in “physchem”, the solubility (kinetic) at 20 h, 200 µM is below 5 µM.

The compound `Cc1nnc(-c2noc3c(F)c4c(cc23)CC2(C(=O)NC(=O)NC2=O)[C@H]2[C@H](C)N(C#N)[C@H](C)CN42)o1` returned a logD in data set [1] of 1.9. This compound also registered a kinetic solubility at 20 h, 200 µM in “physchem” of 45 µM (≈ 22.2 µg/mL).

For `Cc1nnc(-c2noc3c(F)c4c(cc23)CC2(C(=O)NC(=O)NC2=O)[C@H]2[C@H](C)[C@@H](O)[C@H](C)CN42)o1`, in data set [1], the logD came to 3.2. The compound also yielded a solubility (kinetic) at 20 h, 200 µM in “physchem” of 15 µM (≈ 7.27 µg/mL).

Take `C[C@@H]1CN2c3c(cc4c(N5C(=O)OC[C@@H]5C)noc4c3F)CC3(C(=O)NC(=O)NC3=O)[C@H]2[C@H](C)N1CC#N`: in “physchem”, the solubility (kinetic) at 20 h, 200 µM came out at 95 µM (≈ 49.9 µg/mL).

Consider `C[C@@H]1CN2c3c(cc4c(N5CC[C@H](CO)C5)noc4c3F)CC3(C(=O)NC(=O)NC3=O)[C@H]2[C@H](C)O1`, for which the logD in data set [1] is given as 1.7. Besides, the solubility (kinetic) at 20 h, 200 µM in “physchem” came out at 170 µM (≈ 82.9 µg/mL).

For `C[C@@H]1CN2c3c(cc4c(OC[C@H]5CCC(=O)O5)noc4c3F)CC3(C(=O)NC(=O)NC3=O)[C@H]2[C@H](C)O1`, the logD in data set [1] was found to be 1.5. This compound gave a kinetic solubility at 20 h, 200 µM in “physchem” of 155 µM (≈ 77.9 µg/mL).

`C[C@@H]1CN2c3c(cc4c(N5CC[C@H](C#N)C5)noc4c3F)CC3(C(=O)NC(=O)NC3=O)[C@H]2[C@H](C)O1`: the logD in data set [1] is recorded as 1.7. In “physchem”, this compound came in with a kinetic solubility at 20 h, 200 µM above 200 µM.

Regarding `C[C@@H]1CN2c3c(cc4c(N5C(=O)OC[C@@H]5C)noc4c3F)CC3(C(=O)NC(=O)NC3=O)[C@H]2[C@H](C)N1`, the pH-dependent lipophilicity (logD) in data set [1] was 0.3. In “physchem”, this compound had a kinetic solubility at 20 h, 200 µM of 50 µM (≈ 24.3 µg/mL).

On to `C[C@@H]1CN2c3c(cc4c(OC[C@@H]5CCC(=O)N5C)noc4c3F)CC3(C(=O)NC(=O)NC3=O)[C@H]2[C@H](C)O1`, for which the logD in data set [1] came to 1.6. For the same compound, in “physchem”, the kinetic solubility at 20 h, 200 µM worked out at 190 µM (≈ 97.9 µg/mL).

As to `C[C@@H]1CN2c3c(cc4c(N5CC[C@@](C)(O)C5)noc4c3F)CC3(C(=O)NC(=O)NC3=O)[C@H]2[C@H](C)O1`, the logD in data set [1] came to 1.6. Besides, the solubility (kinetic) at 20 h, 200 µM in the data set “physchem” turned out to be 175 µM (≈ 85.3 µg/mL).

In the case of `Cc1nnc(COc2noc3c(F)c4c(cc23)CC2(C(=O)NC(=O)NC2=O)[C@H]2[C@H](C)O[C@H](C)CN42)o1`, the log distribution coefficient (logD) in data set [1] is listed as 1.6. The kinetic solubility at 20 h, 200 µM in “physchem” is 190 µM (≈ 95.1 µg/mL).

Consider `C[C@@H]1CN2c3c(cc4c(OC[C@@H]5CNC(=O)C5)noc4c3F)CC3(C(=O)NC(=O)NC3=O)[C@H]2[C@H](C)O1`, for which the logD in data set [1] is 1.3. This compound also returned a kinetic solubility at 20 h, 200 µM in the data set “physchem” of 190 µM (≈ 95.3 µg/mL).

`Cc1nnc(-c2noc3c(F)c4c(cc23)CC2(C(=O)NC(=O)NC2=O)[C@H]2[C@H](C)O[C@H](C)CN42)o1` came in with a pH-dependent lipophilicity (logD) in data set [1] of 2.3. For the same compound, the kinetic solubility at 20 h, 200 µM in “physchem” stood at 140 µM (≈ 65.9 µg/mL).

Consider `C[C@H]1C[C@@H](C)[C@H]2N(C1)c1c(cc3c(OC[C@@H]4CCC(=O)N4)noc3c1F)CC21C(=O)NC(=O)NC1=O`, for which the logD in data set [1] was determined as 3.9. In addition, the kinetic solubility at 20 h, 200 µM in the data set “physchem” was 40 µM (≈ 20 µg/mL).

The compound `C[C@@H]1CN2c3c(cc4c(N5C[C@H](O)[C@@H](O)C5)noc4c3F)CC3(C(=O)NC(=O)NC3=O)[C@H]2[C@H](C)O1` came in with a logD in data set [1] of 0.89. The compound further came in with a solubility (kinetic) at 20 h, 200 µM in “physchem” of 190 µM (≈ 93 µg/mL).

Consider `C[C@@H]1CN2c3c(cc4c(OC[C@@H]5COC(=O)N5)noc4c3F)CC3(C(=O)NC(=O)NC3=O)[C@H]2[C@H](C)O1`, for which the kinetic solubility at 20 h, 200 µM in the data set “physchem” was found to be 180 µM (≈ 90.6 µg/mL).

`CC(=O)N1[C@H](C)CN2c3c(cc4c(N5C(=O)OC[C@@H]5C)noc4c3F)CC3(C(=O)NC(=O)NC3=O)[C@H]2[C@@H]1C` gave a logD in data set [1] of 1.4. For the same compound, the kinetic solubility at 20 h, 200 µM in “physchem” is above 200 µM.

In turn, `C[C@@H]1CN2c3c(cc4c(N5CC[C@@H](O)C5)noc4c3F)CC3(C(=O)NC(=O)NC3=O)[C@H]2[C@H](C)O1` displayed a logD in data set [1] of 1.4. Also, the solubility (kinetic) at 20 h, 200 µM in “physchem” was above 200 µM.

In data set [1], `C[C@@H]1CN2c3c(cc4c(N5CC[C@H](F)C5)noc4c3F)CC3(C(=O)NC(=O)NC3=O)[C@H]2[C@H](C)O1` displayed a logD of 2.2. The kinetic solubility at 20 h, 200 µM in the data set “physchem” was 5 µM (≈ 2.38 µg/mL).

`C[C@@H]1CN2c3c(cc4c(OC[C@H]5COC(=O)N5)noc4c3F)CC3(C(=O)NC(=O)NC3=O)[C@H]2[C@H](C)O1` gave a logD in data set [1] of 1.3. The solubility (kinetic) at 20 h, 200 µM in “physchem” is 190 µM (≈ 95.7 µg/mL).

`C[C@@H]1CN2c3c(cc4c(OC[C@@H]5CCC(=O)N5)noc4c3F)CC3(C(=O)NC(=O)NC3=O)[C@H]2[C@H](C)N1C#N`: the logD in data set [1] is reported as 1.3. Also, the kinetic solubility at 20 h, 200 µM in “physchem” stood at 130 µM (≈ 68.3 µg/mL).

In turn, `C[C@@H]1CN2c3c(cc4c(N5CC[C@H](O)C5)noc4c3F)CC3(C(=O)NC(=O)NC3=O)[C@H]2[C@H](C)O1` yielded a solubility (kinetic) at 20 h, 200 µM in “physchem” of 190 µM (≈ 90 µg/mL).

Regarding `C[C@@H]1CN2c3c(cc4c(OC[C@@H]5CCC(=O)N5)noc4c3F)CC3(C(=O)NC(=O)NC3=O)[C@H]2[C@H](C)O1`, the solubility (kinetic) at 20 h, 200 µM in the data set “physchem” stood at 185 µM (≈ 92.8 µg/mL).

On to `C[C@@H]1CN2c3c(cc4c(N5C(=O)OC[C@@H]5C)noc4c3F)CC3(C(=O)NC(=O)NC3=O)[C@H]2[C@H](C)N1O`, for which, in data set [1], the logD amounted to 0.58. For the same compound, the solubility (kinetic) at 20 h, 200 µM in “physchem” is above 200 µM.

On to `C[C@@H]1CN2c3c(cc4c(N5CC[C@H](C(=O)O)C5)noc4c3F)CC3(C(=O)NC(=O)NC3=O)[C@H]2[C@H](C)O1`, for which the solubility (kinetic) at 20 h, 200 µM in the data set “physchem” amounted to 150 µM (≈ 75.2 µg/mL).

In the case of `C[C@@H]1CN2c3c(cc4c(N5C[C@@H](O)[C@H](O)C5)noc4c3F)CC3(C(=O)NC(=O)NC3=O)[C@H]2[C@H](C)O1`, the logD in data set [1] is given as 1.2. For the same compound, the solubility (kinetic) at 20 h, 200 µM in “physchem” is above 200 µM.

The compound `C[C@@H]1CN2c3c(cc4c(OC[C@H]5CNC(=O)C5)noc4c3F)CC3(C(=O)NC(=O)NC3=O)[C@H]2[C@H](C)O1` had a logD in data set [1] of 1.4. This compound also came in with a solubility (kinetic) at 20 h, 200 µM in the data set “physchem” of 200 µM (≈ 100 µg/mL).

`C[C@@H]1CN2c3c(cc4c(N5C[C@@H](O)[C@@H](O)C5)noc4c3F)CC3(C(=O)NC(=O)NC3=O)[C@H]2[C@H](C)O1`: in data set [1], the logD is recorded as 0.76. The compound further registered a kinetic solubility at 20 h, 200 µM in the data set “physchem” above 200 µM.

In data set [1], `C[C@@H]1CN2c3c(cc4c(N5CCC[C@@H](O)C5)noc4c3F)CC3(C(=O)NC(=O)NC3=O)[C@H]2[C@H](C)O1` displayed a logD of 1.8. Besides, the kinetic solubility at 20 h, 200 µM in “physchem” was above 200 µM.
